Where only a bound is given, the exact number is not on record here.

Chains of the proteins cited; added tags and fusions are not shown. Residues count along the entry.
UniProt P27958, 1027-1657: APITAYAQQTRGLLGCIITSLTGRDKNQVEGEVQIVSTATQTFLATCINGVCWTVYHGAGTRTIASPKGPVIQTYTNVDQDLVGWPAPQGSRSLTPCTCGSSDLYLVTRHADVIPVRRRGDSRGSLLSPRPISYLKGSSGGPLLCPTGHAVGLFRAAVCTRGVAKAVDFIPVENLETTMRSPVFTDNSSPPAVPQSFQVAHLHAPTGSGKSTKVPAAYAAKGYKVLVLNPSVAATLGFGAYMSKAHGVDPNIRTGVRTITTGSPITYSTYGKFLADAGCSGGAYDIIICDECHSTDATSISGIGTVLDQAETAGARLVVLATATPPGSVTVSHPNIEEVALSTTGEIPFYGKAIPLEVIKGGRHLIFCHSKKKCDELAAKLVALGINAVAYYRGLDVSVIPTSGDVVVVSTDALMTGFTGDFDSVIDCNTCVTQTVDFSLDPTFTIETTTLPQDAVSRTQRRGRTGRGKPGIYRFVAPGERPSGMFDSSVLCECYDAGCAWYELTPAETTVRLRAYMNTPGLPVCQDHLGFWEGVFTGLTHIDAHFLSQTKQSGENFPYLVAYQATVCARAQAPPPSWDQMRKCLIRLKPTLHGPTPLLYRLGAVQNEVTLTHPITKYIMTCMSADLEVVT
UniProt P27958, 1658-1711: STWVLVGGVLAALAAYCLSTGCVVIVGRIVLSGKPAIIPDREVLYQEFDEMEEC

One assay has as its target Recombinant heterodimeric HCV NS3/NS4A protease (strain 1a) (Hepatitis C virus genotype 1a, UniProt P27958). Nature of the assay: Spectrophotometric assay for HCV protease inhibitory activity. Format: biochemical. To be noted: Table 1, range.
One may read the Ki as a measure of affinity in units of concentration, obtained from inhibition or displacement. Consider `C#CCCC(NC(=O)[C@@H]1[C@@H]2[C@H](CN1C(=O)[C@@H](NC(=O)N[C@H](CN(C)S(=O)(=O)N1CCC1)C(C)(C)C)C(C)(C)C)C2(C)C)C(=O)C(=O)NCC=C` (some centres unmarked) [Compound 10051], for which the Ki is at most 75 nM. Take `C=CCNC(=O)C(=O)C(CC1CC1)NC(=O)[C@@H]1[C@@H]2[C@H](CN1C(=O)[C@@H](NC(=O)N[C@H](CN(C)S(=O)(=O)N(C)C)C(C)(C)C)C1Cc3ccccc3C1)C2(C)C` (some centres unmarked) [Compound 10068]: the Ki was at most 75 nM.

For `CN(C[C@@H](NC(=O)N[C@H](C(=O)N1C[C@H]2[C@@H]([C@H]1C(=O)NC(CC1CC1)C(=O)C(N)=O)C2(C)C)C(C)(C)C)C(C)(C)C)S(=O)(=O)N1CCOCC1` (some centres unmarked) [Compound 10080], the Ki was at most 75 nM. The same measure, in the same setting: the figure for `CN(C[C@@H](NC(=O)N[C@H](C(=O)N1C[C@H]2[C@@H]([C@H]1C(=O)NC(CC1CC1)C(=O)C(N)=O)C2(C)C)C(C)(C)C)C(C)(C)C)S(=O)(=O)N(C)C(=O)OCc1ccccc1` (some centres unmarked) [Compound 10026] is at most 75 nM; for `C#CCCC(NC(=O)[C@@H]1[C@@H]2[C@H](CN1C(=O)[C@@H](NC(=O)N[C@H](CN(C)S(=O)(=O)N(C)C)C(C)(C)C)C(C)(C)C)C2(C)C)C(=O)C(=O)NCC=C` (some centres unmarked) [Compound 10007] it is at most 75 nM.

Still in this assay, the particulars now being: Table 2, range.
Turning to `C=CCNC(=O)C(=O)C(CC1CCC1)NC(=O)[C@@H]1[C@@H]2[C@H](CN1C(=O)[C@@H](NC(=O)N[C@H](CN(C)S(C)(=O)=O)C(C)(C)C)C1Cc3ccccc3C1)C2(C)C` (some centres unmarked) [Compound 11134], the Ki is at most 75 nM.

Take `C#CCCC(NC(=O)[C@@H]1[C@@H]2[C@H](CN1C(=O)[C@@H](NC(=O)N[C@H](CN(C)S(=O)(=O)c1sc(C)nc1C)C(C)(C)C)C(C)(C)C)C2(C)C)C(=O)C(N)=O` (some centres unmarked) [Compound 11208]: the Ki was at most 75 nM.

On to `CN(C[C@@H](NC(=O)N[C@H](C(=O)N1C[C@H]2[C@@H]([C@H]1C(=O)NC(CC1CC1)C(=O)C(N)=O)C2(C)C)C(C)(C)C)C(C)(C)C)S(=O)(=O)C(C)(C)C` (some centres unmarked) [Compound 11004], for which the Ki is at most 75 nM. As for `C=CCNC(=O)C(=O)C(CC1CC1)NC(=O)[C@@H]1[C@@H]2[C@H](CN1C(=O)[C@@H](NC(=O)NC1(CN(C)S(C)(=O)=O)CCCCC1)C1CCCCC1)C2(C)C` (some centres unmarked) [Compound 11070], the Ki is at most 75 nM.

`CN(C[C@@H](NC(=O)N[C@H](C(=O)N1C[C@H]2[C@@H]([C@H]1C(=O)NC(CC1CCC1)C(=O)C(N)=O)C2(C)C)C1Cc2ccccc2C1)C(C)(C)C)S(=O)(=O)C(C)(C)C` (some centres unmarked) [Compound 11268]: the Ki is at most 75 nM. On to `CCCCC(NC(=O)[C@@H]1[C@@H]2[C@H](CN1C(=O)[C@@H](NC(=O)N[C@H](CN(C)S(=O)(=O)c1cccs1)C(C)(C)C)C(C)(C)C)C2(C)C)C(=O)C(=O)NC` (some centres unmarked) [Compound 11259], for which the Ki is at most 75 nM. Turning to `Cc1nc(C)c(S(=O)(=O)N(C)C[C@@H](NC(=O)N[C@H](C(=O)N2C[C@H]3[C@@H]([C@H]2C(=O)NC(CC2CCC2)C(=O)C(N)=O)C3(C)C)C(C)(C)C)C(C)(C)C)s1` (some centres unmarked) [Compound 11119], the Ki is at most 75 nM. As for `C=CCNC(=O)C(=O)C(CCCC)NC(=O)[C@@H]1[C@@H]2[C@H](CN1C(=O)[C@@H](NC(=O)N[C@H](CN(C)S(=O)(=O)c1ccccc1)C(C)(C)C)C(C)(C)C)C2(C)C` (some centres unmarked) [Compound 11356], the Ki was at most 75 nM. On to `CC(C)(C)CCN(C[C@@H](NC(=O)N[C@H](C(=O)N1C[C@H]2[C@@H]([C@H]1C(=O)NC(CC1CCC1)C(=O)C(N)=O)C2(C)C)C(C)(C)C)C(C)(C)C)S(C)(=O)=O` (some centres unmarked) [Compound 11175], for which the Ki is at most 75 nM. In the case of `C=CCNC(=O)C(=O)C(CC1CC1)NC(=O)[C@@H]1[C@@H]2[C@H](CN1C(=O)[C@@H](NC(=O)N[C@H](CN(C)S(=O)(=O)c1ccc(C)cc1)C(C)(C)C)C(C)(C)C)C2(C)C` (some centres unmarked) [Compound 11345], the Ki is at most 75 nM.

For the compound `CN(C[C@@H](NC(=O)N[C@H](C(=O)N1C[C@H]2[C@@H]([C@H]1C(=O)NC(CC1CCC1)C(=O)C(N)=O)C2(C)C)C(C)(C)C)C(C)(C)C)S(=O)(=O)c1cccs1` (some centres unmarked) [Compound 11032], the Ki was at most 75 nM. With `C=CCNC(=O)C(=O)C(CCCC)NC(=O)[C@@H]1[C@@H]2[C@H](CN1C(=O)[C@@H](NC(=O)N[C@H](CN(CC1CCCCC1)S(C)(=O)=O)C(C)(C)C)C(C)(C)C)C2(C)C` (some centres unmarked) [Compound 11169], the Ki was at most 75 nM. `C=CCNC(=O)C(=O)C(CCC)NC(=O)[C@@H]1[C@@H]2[C@H](CN1C(=O)[C@@H](NC(=O)N[C@H](CN(C)S(=O)(=O)CC)C(C)(C)C)C1Cc3ccccc3C1)C2(C)C` (some centres unmarked) [Compound 11286]: the Ki was at most 75 nM. Take `C=CCNC(=O)C(=O)C(CCCC)NC(=O)[C@@H]1C[C@@H](OC(C)(C)C)CN1C(=O)[C@@H](NC(=O)N[C@H](CN(C)S(C)(=O)=O)C(C)(C)C)C1CCCCC1` (some centres unmarked) [Compound 11195]: the Ki lay within 75 to 250 nM.

For the compound `CN(C[C@@H](NC(=O)N[C@H](C(=O)N1C[C@H]2[C@@H]([C@H]1C(=O)NC(CC1CCC1)C(=O)C(N)=O)C2(C)C)C(C)(C)C)C(C)(C)C)S(=O)(=O)c1ccccc1` (some centres unmarked) [Compound 11029], the Ki is at most 75 nM.

Regarding `CN(C[C@@H](NC(=O)N[C@H](C(=O)N1C[C@H](Cl)C[C@H]1C(=O)NC(CC1CCC1)C(=O)C(N)=O)C1CCCCC1)C(C)(C)C)S(C)(=O)=O` (some centres unmarked) [Compound 11167], the Ki was at most 75 nM.

For `C=CCNC(=O)C(=O)C(CC1CC1)NC(=O)[C@@H]1[C@@H]2[C@H](CN1C(=O)[C@@H](NC(=O)N[C@H](CN(C)S(=O)(=O)CC)C(C)(C)C)C1Cc3ccccc3C1)C2(C)C` (some centres unmarked) [Compound 11288], the Ki was at most 75 nM.

As to `C=CCNC(=O)C(=O)C(CC1CC1)NC(=O)[C@@H]1[C@@H]2[C@H](CN1C(=O)[C@@H](NC(=O)N[C@H](CN(C)S(=O)(=O)c1ccc(OC)cc1OC)C(C)(C)C)C(C)(C)C)C2(C)C` (some centres unmarked) [Compound 11323], the Ki is at most 75 nM. As to `C=CCNC(=O)C(=O)C(CCC(F)(F)F)NC(=O)[C@@H]1[C@@H]2[C@H](CN1C(=O)[C@@H](NC(=O)N[C@H](CN(C)S(=O)(=O)c1cccs1)[C@@H](C)CC)C(C)(C)C)C2(C)C` (some centres unmarked) [Compound 11385], the Ki is at most 75 nM. The same measure, in the same setting: to `C=CCNC(=O)C(=O)C(CC1CC1)NC(=O)[C@@H]1[C@@H]2[C@H](CN1C(=O)[C@@H](NC(=O)N[C@H](CN(CC)S(=O)(=O)c1cccs1)C(C)(C)C)C(C)(C)C)C2(C)C` (some centres unmarked) [Compound 11222] belongs at most 75 nM; to `C#CCCC(NC(=O)[C@@H]1[C@@H]2[C@H](CN1C(=O)[C@@H](NC(=O)N[C@H](CN(C)S(=O)(=O)CC)C(C)(C)C)C1Cc3ccccc3C1)C2(C)C)C(=O)C(=O)NCC=C` (some centres unmarked) [Compound 11297], at most 75 nM; to `C=CCNC(=O)C(=O)C(CCCC)NC(=O)[C@@H]1[C@@H]2[C@H](CN1C(=O)[C@@H](NC(=O)N[C@H](CN(CC)S(=O)(=O)c1cccs1)C(C)(C)C)C(C)(C)C)C2(C)C` (some centres unmarked) [Compound 11223], at most 75 nM. In the case of `C=CCNC(=O)C(=O)C(CCC)NC(=O)[C@@H]1[C@@H]2[C@H](CN1C(=O)[C@@H](NC(=O)N[C@H](CN(C)S(C)(=O)=O)[C@@H](C)CC)C(C)(C)C)C2(C)C` (some centres unmarked) [Compound 11102], the Ki is at most 75 nM.

Turning to `C#CCCC(NC(=O)[C@@H]1[C@@H]2[C@H](CN1C(=O)[C@@H](NC(=O)N[C@H](CN(C)S(=O)(=O)c1cccs1)C(C)(C)C)C1CCCCC1)C2(C)C)C(=O)C(=O)NCC=C` (some centres unmarked) [Compound 11294], the Ki was at most 75 nM.

With `C=CCNC(=O)C(=O)C(CCCC)NC(=O)[C@@H]1[C@@H]2[C@H](CN1C(=O)[C@@H](NC(=O)N[C@H](CN(C)S(=O)(=O)C(F)(F)F)C(C)(C)C)C(C)(C)C)C2(C)C` (some centres unmarked) [Compound 11090], the Ki is at most 75 nM. Same read-out and setting: the figure for `CCCC(NC(=O)[C@@H]1[C@@H]2[C@H](CN1C(=O)[C@@H](NC(=O)N[C@H](CN(C)S(C)(=O)=O)C(C)(C)C)C1Cc3ccccc3C1)C2(C)C)C(=O)C(N)=O` (some centres unmarked) [Compound 11191] is at most 75 nM.

The assay is the same for the next values; noted with them: Table 3, range.
`CCCNC(=O)C(=O)C(CCC)NC(=O)[C@@H]1[C@@H]2[C@H](CN1C(=O)[C@@H](NC(=O)N[C@H](CNS(C)(=O)=O)[C@@H](C)CC)C(C)(C)C)C2(C)C` (some centres unmarked) [Compound 12022]: the Ki is over 250 nM.

Consider `CC(C)CC(C)(CNS(=O)(=O)c1ccccc1)NC(=O)N[C@H](C(=O)N1C[C@H]2[C@@H]([C@H]1C(=O)NC(CC1CC1)C(=O)C(N)=O)C2(C)C)C(C)(C)C` (some centres unmarked) [Compound 12005], for which the inhibition constant Ki was 75 to 250 nM.

The same assay, now with this note: Table 4, range.
Take `CC(C)(C)[C@H](NC(=O)N[C@H](CNC(=O)c1ccccc1)C(C)(C)C)C(=O)N1C[C@H]2[C@@H]([C@H]1C(=O)NC(CC1CC1)C(=O)C(N)=O)C2(C)C` (some centres unmarked) [Compound 13021]: the Ki was at most 75 nM. As for `CC(C)(C)[C@H](NC(=O)N[C@H](CNC(=O)c1cnccn1)C(C)(C)C)C(=O)N1C[C@H]2[C@@H]([C@H]1C(=O)NC(CC1CC1)C(=O)C(N)=O)C2(C)C` (some centres unmarked) [Compound 13026], the Ki is at most 75 nM.

The assay is the same for the next values; noted with them: Table 5, range.
On to `CN(C[C@@H](NC(=O)N[C@H](C(=O)N1C[C@H]2[C@@H]([C@H]1C(=O)NC(CC1CCC1)C(=O)C(N)=O)C2(C)C)C(C)(C)C)C(C)(C)C)C(=O)OC(C)(C)C` (some centres unmarked) [Compound 14029], for which the Ki is over 250 nM.

Consider `C=CCNC(=O)C(=O)C(CC1CC1)NC(=O)[C@@H]1[C@@H]2[C@H](CN1C(=O)[C@@H](NC(=O)N[C@H](CN(C)C(=O)OC(C)(C)C)C(C)(C)C)C(C)(C)C)C2(C)C` (some centres unmarked) [Compound 14032], for which the Ki is over 250 nM. For the compound `CC(C)OC(=O)NC[C@@H](NC(=O)N[C@H](C(=O)N1C[C@H]2[C@@H]([C@H]1C(=O)NC(CC1CCC1)C(=O)C(N)=O)C2(C)C)C(C)(C)C)C(C)C` (some centres unmarked) [Compound 14001], the Ki is at most 75 nM.

Staying with this assay, now noted: Table 5A, range.
For the compound `C=CCNC(=O)C(=O)C(CCCC)NC(=O)[C@@H]1[C@@H]2[C@H](CN1C(=O)[C@@H](NC(=O)N[C@H](CN(C)S(=O)(=O)c1ccccn1)C(C)(C)C)C1Cc3ccccc3C1)C2(C)C` (some centres unmarked) [Compound 11394], the inhibitory constant (Ki) is at most 75 nM.

Still in this assay, the particulars now being: Table 6.
As for `CN(C[C@@H](NC(=O)N[C@H](C(=O)N1C[C@H]2[C@@H]([C@H]1C(=O)NC(CC1CCC1)C(=O)C(N)=O)C2(C)C)C(C)(C)C)C(C)(C)C)C(=O)C(F)(F)F` (some centres unmarked) [drawing 64], the Ki was found to be 2 nM. Consider `C=CCNC(=O)C(=O)C(CC1CC1)NC(=O)[C@@H]1[C@@H]2[C@H](CN1C(=O)[C@@H](NC(=O)N[C@H](CN(C)S(C)(=O)=O)C(C)(C)C)C(C)(C)C)C2(C)C` (some centres unmarked) [drawing 54], for which the Ki was 19 nM.
